Assay results as given in publication PMC5612113, “Dimerization of the transmembrane domain of amyloid precursor protein is determined by residues around the γ-secretase cleavage sites” (The Journal of Biological Chemistry, 2017).

Molecular target: the molecule itself
Experiment: FRET or BRET; three-hybrid BRET: C99-Rlu co-expressed with C99-YFP-N and C99-YFP-C; a signal needs all three hybrid proteins in close proximity

B1: C99, 99-amino acid C-terminal fragment of the amyloid precursor protein (domain or fragment)
chain: not shown
modifications: biotin on the Avi tag (pull-down bait copy, in-cell biotinylation by BirA)
notes: C99, the 99-amino acid C-terminal fragment of human amyloid precursor protein left by β-secretase cleavage; the assay tells which fusions met; also called WT C99; C99–TEV; source: PS1/PS2-deleted HTL cells (HEK293-derived), transfected; in live cells (Tango, BRET) or in lysate (pull-down); not shown: TEV protease (on one copy, Tango), C-terminal, kept; TEV site-rTA (on the other copy, Tango and …)
- stoichiometry N: 2
